Assay results from patent publication US20210009702A1 (TUSK THERAPEUTICS, published 2021).

Legend:
[1] = biological target: T1, human CD25 expressed on cells (human, UniProt P01589 22-272); assay: flow cytometry on human in vitro differentiated Treg cells, Alexa Fluor 647 anti-human IgG secondary
T1 construct: Endogenous CD25 on human cell lines and primary cells; also called CD25 on human in vitro differentiated Treg cells; CD25 on SU-DHL-1 cells
T1 sequence: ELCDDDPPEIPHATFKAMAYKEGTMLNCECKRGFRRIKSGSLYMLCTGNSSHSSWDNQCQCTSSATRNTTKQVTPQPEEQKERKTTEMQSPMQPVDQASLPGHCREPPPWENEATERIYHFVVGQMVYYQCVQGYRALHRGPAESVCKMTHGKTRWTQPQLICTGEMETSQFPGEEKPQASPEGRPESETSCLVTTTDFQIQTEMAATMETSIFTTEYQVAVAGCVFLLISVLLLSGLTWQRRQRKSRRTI

[2] = biological target: T2, recombinant human CD25 his tagged (human, UniProt P01589 22-240); assay: BLI (ForteBio Octet), rhCD25-His on Ni-NTA sensors, IgG in solution, avidity, 1:1 fit
T2 construct: also called rhCD25-his; not shown: His tag
T2 sequence: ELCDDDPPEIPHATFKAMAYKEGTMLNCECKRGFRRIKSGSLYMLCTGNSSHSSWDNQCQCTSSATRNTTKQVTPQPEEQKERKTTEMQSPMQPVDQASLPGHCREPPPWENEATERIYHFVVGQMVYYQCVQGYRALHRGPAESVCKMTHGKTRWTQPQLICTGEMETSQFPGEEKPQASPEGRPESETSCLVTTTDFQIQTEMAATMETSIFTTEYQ

B1: aCD25-a-634 (antibody, V domains shown)
VH: QVQLVQSGAEVKKPGASVKVSCKASGYTFTGYYMHWVRQAPGQGLEWMGSINPNSGGTNYAQKFQGRVTMTRDTSISTAYMELSRLRSDDTAVYYCARDGLMDVWGQGTAVTVSS
VL: [about 100 residues not printed]PFTFGGGTKVEIK
notes: also called anti-human CD25 antibody; not shown: human IgG1 heavy chain constant region, […]; human kappa light chain constant region, […]
EC50 (read off the curve) [1]: ~1 µg/mL | Kd [2]: 1.56 nM
